The text below walks through data of article PMC5286426, “The Calcium-Dependent Switch Helix of L-Plastin Regulates Actin Bundling” (Scientific Reports, 2017).

The target of assay [1] is human platelet actin (F-actin) (human) (UniProt P60709). Briefly: co-sedimentation; low-speed pelleting (12,000 g, 15 min) of actin bundles; 6 uM F-actin, 3 uM LPL, 20 mM Tris pH 7.5, 100 mM KCl, 1 mM MgCl2, 0.1 mM CaCl2, 0.1 mM ATP, with 5 mM EGTA; room temperature, 1 h; pellet read by SDS-PAGE.
The target is the same in assay [2]. The assay is described as follows: co-sedimentation; low-speed pelleting (12,000 g, 15 min) of actin bundles; 6 uM F-actin, 3 uM LPL, 20 mM Tris pH 7.5, 100 mM KCl, 1 mM MgCl2, 0.1 mM CaCl2, 0.1 mM ATP, without EGTA (Ca2+); room temperature, 1 h; pellet read by SDS-PAGE.

For “full-length human L-plastin (from UniProt P13796 1-627) (natural protein)”, the percent of LPL in the pellet in assay [1] stood at 70%; in assay [2] it was 50%.
